The test has as its target KDM5B (Homo sapiens, UniProt Q9UGL1). The test is described as follows: KDM5B alphascreen activity assay. In kind it is biochemical. Conditions: Table 3, against KDM5B (FIG. 9A-9B).

Protein sequences, listed by entry. Tags and fused reporters are not part of them.
UniProt Q9UGL1, whole entry: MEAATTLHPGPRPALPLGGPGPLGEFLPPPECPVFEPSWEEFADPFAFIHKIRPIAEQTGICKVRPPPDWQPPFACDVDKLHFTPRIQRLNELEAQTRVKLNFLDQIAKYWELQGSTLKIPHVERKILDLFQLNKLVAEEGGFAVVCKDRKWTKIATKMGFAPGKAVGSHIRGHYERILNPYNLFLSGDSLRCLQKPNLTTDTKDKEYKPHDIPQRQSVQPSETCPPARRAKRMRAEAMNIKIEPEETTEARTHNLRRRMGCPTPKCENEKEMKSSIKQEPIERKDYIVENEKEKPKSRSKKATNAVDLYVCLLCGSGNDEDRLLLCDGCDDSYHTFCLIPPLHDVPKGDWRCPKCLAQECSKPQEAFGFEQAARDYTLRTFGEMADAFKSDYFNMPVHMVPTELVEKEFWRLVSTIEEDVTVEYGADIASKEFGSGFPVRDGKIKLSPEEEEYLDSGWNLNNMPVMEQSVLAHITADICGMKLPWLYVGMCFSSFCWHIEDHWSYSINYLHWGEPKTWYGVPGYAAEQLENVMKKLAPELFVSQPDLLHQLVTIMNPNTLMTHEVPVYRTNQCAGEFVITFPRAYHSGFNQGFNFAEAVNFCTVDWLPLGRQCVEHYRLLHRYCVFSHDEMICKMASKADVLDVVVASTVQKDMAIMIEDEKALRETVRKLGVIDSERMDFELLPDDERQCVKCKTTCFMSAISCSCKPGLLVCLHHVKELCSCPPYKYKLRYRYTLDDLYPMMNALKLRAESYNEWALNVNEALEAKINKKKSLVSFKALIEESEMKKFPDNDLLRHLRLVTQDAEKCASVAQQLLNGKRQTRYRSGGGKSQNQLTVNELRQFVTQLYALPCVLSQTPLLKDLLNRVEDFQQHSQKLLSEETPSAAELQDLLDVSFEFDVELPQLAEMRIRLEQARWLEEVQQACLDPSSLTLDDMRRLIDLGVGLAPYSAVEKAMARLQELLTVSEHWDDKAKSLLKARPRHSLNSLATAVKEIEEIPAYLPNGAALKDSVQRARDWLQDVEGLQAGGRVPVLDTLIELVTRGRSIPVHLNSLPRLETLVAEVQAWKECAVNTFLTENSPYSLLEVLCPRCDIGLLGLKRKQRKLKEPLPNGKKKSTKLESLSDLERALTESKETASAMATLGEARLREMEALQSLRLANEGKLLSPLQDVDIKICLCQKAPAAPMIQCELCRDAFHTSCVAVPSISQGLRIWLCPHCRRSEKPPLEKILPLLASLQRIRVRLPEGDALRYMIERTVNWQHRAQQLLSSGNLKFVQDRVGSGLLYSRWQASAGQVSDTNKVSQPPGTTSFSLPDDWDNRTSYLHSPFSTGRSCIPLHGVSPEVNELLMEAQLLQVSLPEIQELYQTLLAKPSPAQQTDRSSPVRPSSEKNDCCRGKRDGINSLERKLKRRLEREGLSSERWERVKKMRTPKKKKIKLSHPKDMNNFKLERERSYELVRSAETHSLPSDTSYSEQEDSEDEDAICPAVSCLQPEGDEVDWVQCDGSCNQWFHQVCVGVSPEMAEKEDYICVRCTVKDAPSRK

`CCN(CCN(C)C)C(=O)CNCc1cc(C(=O)Oc2ccccc2OC(C)C)ccn1` gave a half-maximal inhibitory concentration (IC50) of 520 nM.

`CCOC(=O)c1ccnc(CNCC(=O)N(CCN(C)C)C2CC2)c1` registered an IC50 of 1530 nM.

With `CCN(CCN(C)C)C(=O)CNCc1cc(C(=O)OCc2oc(=O)oc2C)ccn1`, the IC50 is 290 nM.

As for `CCOC(=O)c1ccnc(CNCC(=O)N(C)CCN(C)C)c1`, the IC50 is 6750 nM.

`CCN(CCN(C)C)C(=O)CNCc1cc(C(=O)Oc2ccccc2OC)ccn1` displayed an IC50 of 940 nM.

As for `CCN(CCN(C)C)C(=O)CNCc1cc(C(=O)Nc2c(OC)cccc2OC)ccn1`, the IC50 is 460 nM.

`CCN(CCN(C)C)C(=O)CNCc1cc(C(=O)Oc2c(OC)cccc2OC)ccn1`: the half-inhibitory concentration (IC50) is 390 nM.

In turn, `CC(C)Oc1cccc(OC(C)C)c1OC(=O)c1ccnc(CNCC(=O)N(CCN(C)C)C2CC2)c1` came in with a 50% inhibitory concentration (IC50) of 890 nM.

Consider `CC(C)Oc1cccc(OC(C)C)c1OC(=O)c1ccnc(CNCC(=O)N(C)CCN(C)C)c1`, for which the concentration for half-maximal inhibition (IC50) was 1040 nM.

The values are drawn from patent publication US20230382865A1, “HISTONE DEMETHYLASE 5 INHIBITORS AND USES THEREOF” (DANA-FARBER CANCER INSTITUTE, INC., priority 2018, published 2023).
